Experimental findings from ChEMBL document CHEMBL4371059 (J Med Chem, 2019) are described below.

By UniProt entry, the sequences of proteins in these tests, tags left out. Where a name states a change or a piece, a line headed by the entry shows the natural chain unless it says otherwise.
UniProt P41144: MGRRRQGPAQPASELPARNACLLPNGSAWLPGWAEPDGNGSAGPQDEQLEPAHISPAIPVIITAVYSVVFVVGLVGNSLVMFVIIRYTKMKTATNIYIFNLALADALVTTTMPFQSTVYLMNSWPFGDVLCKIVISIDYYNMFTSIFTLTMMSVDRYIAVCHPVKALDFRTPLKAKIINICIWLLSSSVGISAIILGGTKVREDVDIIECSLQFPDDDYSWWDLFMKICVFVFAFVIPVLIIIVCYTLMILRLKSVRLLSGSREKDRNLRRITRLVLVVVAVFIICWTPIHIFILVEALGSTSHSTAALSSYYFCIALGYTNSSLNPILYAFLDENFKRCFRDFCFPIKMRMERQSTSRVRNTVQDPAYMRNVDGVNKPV
UniProt P33533, whole entry, looked up: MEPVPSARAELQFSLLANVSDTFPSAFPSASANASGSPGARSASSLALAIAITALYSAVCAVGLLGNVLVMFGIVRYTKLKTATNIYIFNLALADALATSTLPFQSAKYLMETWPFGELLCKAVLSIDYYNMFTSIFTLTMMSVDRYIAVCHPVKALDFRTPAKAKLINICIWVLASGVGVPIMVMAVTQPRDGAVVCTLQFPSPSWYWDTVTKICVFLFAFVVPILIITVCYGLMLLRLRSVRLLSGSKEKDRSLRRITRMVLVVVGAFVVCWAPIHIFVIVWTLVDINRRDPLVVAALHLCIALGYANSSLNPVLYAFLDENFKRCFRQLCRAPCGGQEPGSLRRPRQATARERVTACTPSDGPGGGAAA
UniProt P41145: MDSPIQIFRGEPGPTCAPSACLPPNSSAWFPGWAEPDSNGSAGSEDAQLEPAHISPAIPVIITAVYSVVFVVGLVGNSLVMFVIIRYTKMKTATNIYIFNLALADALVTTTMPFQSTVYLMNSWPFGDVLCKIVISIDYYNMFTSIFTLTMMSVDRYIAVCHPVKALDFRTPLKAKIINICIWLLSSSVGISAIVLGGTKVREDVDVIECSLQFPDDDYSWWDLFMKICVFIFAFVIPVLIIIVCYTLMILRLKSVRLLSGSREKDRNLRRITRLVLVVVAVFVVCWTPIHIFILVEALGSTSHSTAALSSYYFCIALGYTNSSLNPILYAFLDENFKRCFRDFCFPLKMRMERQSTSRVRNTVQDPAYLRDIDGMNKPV
UniProt P97266, whole entry, looked up: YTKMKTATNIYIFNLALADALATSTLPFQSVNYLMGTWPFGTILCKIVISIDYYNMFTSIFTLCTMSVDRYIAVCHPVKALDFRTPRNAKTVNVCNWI
UniProt Q60492, whole entry, looked up: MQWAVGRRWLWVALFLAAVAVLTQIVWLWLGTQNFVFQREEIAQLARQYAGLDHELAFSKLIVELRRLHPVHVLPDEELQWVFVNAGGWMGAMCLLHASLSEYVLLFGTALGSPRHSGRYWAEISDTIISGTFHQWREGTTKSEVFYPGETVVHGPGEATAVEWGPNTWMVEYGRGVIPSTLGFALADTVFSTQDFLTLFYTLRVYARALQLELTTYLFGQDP

In test [1] the target is Kappa-type opioid receptor (Cavia porcellus, UniProt P41144). Kind of test: Displacement of [3H]U-69,593 from KOR in guinea pig brain membranes after 120 mins by scintillation counting method. For orientation: Displacement assays read how much labelled ligand stays bound in the presence of the test substance.
The target of test [2] is Delta-type opioid receptor (Rattus norvegicus, UniProt P33533). Kind of test: Displacement of [3H]DPDPE from DOR in Sprague-Dawley rat brain membranes after 120 mins by scintillation counting method. Particulars: strain Sprague-Dawley.
Test [3] has as its target Kappa-type opioid receptor (Homo sapiens, UniProt P41145).
Another test has as its target Mu-type opioid receptor (Cavia porcellus, UniProt P97266). Kind of test: Displacement of [3H]DAMGO from MOR in guinea pig brain membranes after 120 mins by scintillation counting method.
The target of test [4] is Sigma non-opioid intracellular receptor 1 (Cavia porcellus, UniProt Q60492).

`CN1CCN(C(=O)Cc2ccc(Cl)c(Cl)c2)[C@H]2[C@@H]1CCC[C@@H]2N1CCCC1`: the figures for the Ki in test [1], in test [2] and in test [3] were 2.3 nM, 333 nM and 11 nM, respectively.
With `O=C(Cc1ccc(Cl)c(Cl)c1)N1CCN[C@H]2CCC[C@H](N3CCCC3)[C@H]21`, the Ki in test [1] worked out at 0.54 nM; in test [2], 205 nM; in test [3], 4.8 nM.
With `CC(C)(C)OC(=O)N1CCN(C(=O)Cc2ccc(Cl)c(Cl)c2)[C@@H]2[C@@H](N3CCCC3)CCC[C@@H]21`, the Ki on Mu-type opioid receptor turned out to be 260 nM; in test [3] it was 18 nM.
Turning to `O=C(Cc1ccc(Cl)c(Cl)c1)N1CCN(Cc2cn(CCF)nn2)[C@H]2CCC[C@H](N3CCCC3)[C@H]21`, the Ki at Mu-type opioid receptor amounted to 573 nM.
Molecule `O=C(Cc1ccc(Cl)c(Cl)c1)N1CCN(CCCCF)[C@H]2CCC[C@H](N3CCCC3)[C@H]21` gave a Ki in test [1] of 8 nM.
With `CCCCN1CCN(C(=O)Cc2ccc(Cl)c(Cl)c2)[C@@H]2[C@@H](N3CCCC3)CCC[C@@H]21` (racemic), the Ki in test [1] is 6.6 nM; at Mu-type opioid receptor, 2600 nM; in test [2], 2500 nM; in test [4], 876 nM; in test [3] it was 16 nM.
`O=C(Cc1ccc(Cl)c(Cl)c1)N1CCN(Cc2ccc(F)cc2)[C@H]2CCC[C@H](N3CCCC3)[C@H]21`: the Ki in test [1] came out at 81 nM; in test [2], 397 nM; in test [4], 1600 nM; in test [3], 42 nM.
On to `CCN1CCN(C(=O)Cc2ccc(Cl)c(Cl)c2)[C@H]2[C@@H]1CCC[C@@H]2N1CCCC1`, for which the Ki in test [1] was 4.2 nM; on Mu-type opioid receptor, 3300 nM; in test [2], 1100 nM; in test [3], 11 nM.
As for `CCCN1CCN(C(=O)Cc2ccc(Cl)c(Cl)c2)[C@@H]2[C@@H](N3CCCC3)CCC[C@@H]21` (racemic), the inhibition constant (Ki) in test [1] came out at 1.4 nM; on Mu-type opioid receptor, 407 nM; in test [2], 992 nM; in test [4] it was 1800 nM; in test [3], 9.2 nM.
On to `O=C(Cc1ccc(Cl)c(Cl)c1)N1CCN(C(=O)Cn2cc(CCCF)nn2)[C@H]2CCC[C@H](N3CCCC3)[C@H]21`, for which the Ki in test [1] came out at 3.3 nM; on Mu-type opioid receptor, 947 nM; in test [2], 425 nM.
Regarding `O=C(Cc1ccc(Cl)c(Cl)c1)N1CCN(C(=O)COCCF)[C@H]2CCC[C@H](N3CCCC3)[C@H]21`, the Ki in test [1] was 15 nM; in test [2], 1100 nM; in test [3], 77 nM.
In test [1], `O=C(Cc1ccc(Cl)c(Cl)c1)N1CCN(CCF)[C@H]2CCC[C@H](N3CCCC3)[C@H]21` registered a Ki of 2.2 nM.

For orientation: Ki means a dissociation constant, usually derived from enzyme kinetics or from competition with a known ligand. The low end stands for a stronger hold on the target, the high end for a looser hold on the target.
